Most compounds without a hit are left out; they make up all but 2.5% or so of the library.
miR-21 reporter: raises the signal of a miR-21 reporter; HeLa miR-21 FLuc reporter, luciferase, 48 h; Potency, µM (series often up to 38.3 µM); 340,000 tested, under 10 active; active = well fitted rising curve with a large enough effect; inconclusive = small, poorly fitted or top-dose-only effect; inactive = no such curve, though single readings can be large or run the other way;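 also: miR-21 action dims this reporter so a rising signal means less miR-21 action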
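Using DMEM plus 10% FBS, HeLa miR-21-FLuc cells are incubated with test compounds (final up to about 40uM) for 48 hours; firefly luciferase signal is then imaged following reagent-mediated lysis.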
Apoferritin bind: candidate novel general anesthetic via apoferritin binding. P02791. hit rate 0.074% among 350,000. AID 485281. apoferritin/1-aminoanthracene competitive binding, fluorescence. Potency, µM (doses to about 77.5 µM), actives largely listed as inhibitors; also: nearly all actives have a fitted effect of over 20% in size
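10 uM apoferritin + 50% sat. 1-AMA, PBS; cpd 10 min RT; Ex380/Em535 endpoint; normalized to free probe vs complex; 4-param Hill fit; propofol titration as pos. ctrl.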
ClpP mod: qHTS Assay for Activators of ClpP. ATP-dependent Clp protease proteolytic subunit (Bacillus subtilis (strain 168)), P80244. purified B. subtilis ClpP, FRET peptide cleavage, 20 min. Potency, µM (series often up to 57.5 µM). hit rate 1.9% among 340,000. AID 651965, 2013; active = well fitted falling curve with a large enough effect; inconclusive = small, poorly fitted or top-dose-only effect; inactive = no such curve, though single readings can be large or run the other way; also: the source files actives as falling curves though it sought activators and does not explain the sign; nearly all actives have a fitted effect of over 65% in size
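Purified B. subtilis ClpP, 10 microg/mL final in Tris/HCl pH8 with KCl, BSA, glycerol and Tween-20, cleaved an Abz/nitrotyrosine-quenched decapeptide. Fluorescence (ex 320, em 430) was read at 0 and 20 min at room temperature. Delta was normalized to 5.8 microM ADEP and DMSO/no-enzyme controls.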
TrxR1 substrate: rat thioredoxin reductase 1 substrate activity; purified TrxR1 substrate turnover, NADPH consumption readout; Potency, µM (doses to about 114 µM); hit rate 0.01% among 390,000; AID 588456; also: nearly all actives have a fitted effect of over 50% in size
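Rat TrxR1, dispensed at 90 nM, was prereduced with 400 uM NADPH (final) for 5 min at ~22 deg C, then incubated with compound 15 min before 400 uM selenite. A first-read NADPH fluorescence drop versus no-compound background flagged substrates.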
rTrxR1 inhibitor: rat TrxR1 inhibition. O89049. recombinant rTrxR1, NADPH fluorescence consumption, selenite substrate. Potency, µM (series often up to 114 µM), hits mostly inhibitors. AID 588453. hit rate 1% among 390,000; also: nearly all actives have a fitted effect of over 65% in size
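Rat TrxR1 (90 nM in the dispensed reagent) was pre-reduced with 400 uM NADPH for 5 min at room temperature, then incubated with compound for 15 min. After 400 uM selenite was added, NADPH fluorescence (Ex 340/Em 450 nm) was followed for 8 min.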
A number is an active result; n = inactive; u = inconclusive; x = no result; [ ] = remark or other dose. Unless noted, calls follow the shape of the dose curve; as a rule, active = well fitted curve in the direction sought with a large enough effect; inconclusive = small, poorly fitted or top-dose-only effect, or another doubt; inactive = no such curve, though single readings can be large; an effect the other way counts as inactive or inconclusive.

SMILES	miR-21 reporter	Apoferritin bind	ClpP mod	TrxR1 substrate	rTrxR1 inhibitor
COC(=O)C1C(=O)C=C(N2CCOCC2)CC1(C)C (configuration not stated)	n	n	12.6µM	n	n
CCOC(=O)C1=C(c2ccc(OC)cc2)OC(N)=C(C#N)C1c1cccnc1 (configuration not stated)	n	n	x	n	79.4µM
COc1ccc(CNCc2cc3c(cc2[N+](=O)[O-])OCO3)cc1	n	n	n	n	n
Cc1cc(C)cc(NCc2cc3c(cc2[N+](=O)[O-])OCO3)c1	n	15.8µM	n	n	n
COc1ccc(/C=C2\N=C3CCCCCN3C2=O)cc1OC	n	u	n	n	n
COc1cc(/C=C2\N=C3CCCCCN3C2=O)ccc1O	n	n	n	u	50.1µM
Cc1cc(C(=O)CCl)c(C)n1CCc1ccc(Cl)cc1	n	u	x	n	7.94µM
Cc1ccc(-n2ncc(C(=O)NCCCN3CCCCC3)c2C2CCN(C(=O)OC(C)(C)C)CC2)cc1	n	n	n	n	n
COc1ccccc1NC(C)C(=O)c1c(C)[nH]c2ccccc12 (configuration not stated)	x	x	n	n	n
Cc1[nH][nH]c(=O)c1C(c1c(C)[nH][nH]c1=O)c1cn(Cc2ccc(Cl)c(Cl)c2)c2ccccc12	n	u	n	56.2µM	u
O=c1c2ccccc2ncn1Cc1ccc(Cl)c(Cl)c1	n	u	n	n	n
Cc1ccc(OCC(=O)N(Cc2ccc(N(C)C)cc2)CC2CCCO2)cc1C (configuration not stated)	n	n	n	n	n
Cc1cc2c(cc1C)C(=O)C(Br)=C(N)C2=O	x	x	x	n	50.1µM
NC1=C(Br)C(=O)c2ccccc2C1=O	n	n	x	n	n[11.4 µM]
O=C(CCCn1ccc2cc(S(=O)(=O)N3CCCC3)ccc21)NCc1ccc(Cl)cc1	u	n	n	n	n
O=C(COc1ccccc1C(=O)Nc1ccccc1)Nc1ccc2ccccc2c1	x	x	u	n	n
CCC(=O)Nc1nnc(-c2ccncc2)s1	n	n	15.8µM	n	n
Cc1onc(-c2ccccc2)c1C(=O)Nc1ccc2c(C)cc(=O)oc2c1	n	n	15.8µM	n	n
CCNc1nnc(-c2ccncc2)s1	n	n	n	n	n
Cc1onc(-c2ccccc2)c1C(=O)Nc1nnc(-c2ccncc2)s1	n	n	31.6µM	n	n
O=C(Cc1ccccc1)NCC(=O)OCC(=O)c1ccc2ccccc2c1	x	x	28.2µM	n[0.0914 µM]	n
O=C(CNC(=O)c1ccccc1)NCC(=O)OCC(=O)c1ccc2ccccc2c1	x	x	n	n[0.0914 µM]	n
CCC1OC2(C)OC(=N)C1(C#N)C(C#N)(C#N)C2c1ccccc1 (configuration not stated)	n	n	22.4µM	n	u
CC(C)C1OC2(C)OC(=N)C1(C#N)C(C#N)(C#N)C2c1ccccc1 (configuration not stated)	n	n	n	n	n
CCC12OC(=N)C(C#N)(C1C)C(C#N)(C#N)C(c1ccccc1)O2 (configuration not stated)	n	n	7.08µM	n	n
SMILES	miR-21 reporter	Apoferritin bind	ClpP mod	TrxR1 substrate	rTrxR1 inhibitor
Cc1ccc(C2OC34CCCCCC3C(C#N)(C(=N)O4)C2(C#N)C#N)cc1 (configuration not stated)	n	n	n	n	n
Cc1ccc(S(=O)(=O)N(CC(=O)N/N=C/c2cccc(C)c2)c2cccc3cccnc23)cc1	n	n	25.1µM	n	n
Cc1ccc(S(=O)(=O)N(CC(=O)NC2CCCCCC2)c2ccccc2F)cc1	n	n	n	n	n
Cc1ccc(S(=O)(=O)N(CC(=O)N/N=C/c2cccc3c2OCCO3)c2ccccc2F)cc1	n	u	22.4µM	n	n
Cc1ccc(C)c(-n2cc(-c3ccccc3)nc2SCC(=O)Nc2ccccc2)c1	n	n	n	n	n
CCOC(=O)Cn1c(C)nc2c(C(=O)OCC)sc(C)c2c1=O	n	n	31.6µM	n	n
Cc1c(C(=O)NCc2cccc(Cl)c2)sc2ncnc(N(C)C3CCCCC3)c12	n	n	u	n	n
CC(=O)N1CCc2cc(Br)cc(S(=O)(=O)N3CCC(C(=O)Nc4ccc(C(C)C)cc4)CC3)c21	n	n	n	n	n
CCN1C(C(=O)c2ccccc2)=C(OC(=O)COc2ccc(C)cc2)c2ccccc2S1(=O)=O	u	n	n	n	20µM

From PubChem
